# scFv variants of Ab-14 (heavy chain) against a SARS-CoV-2 spike peptide

The measurements come from Li et al. 2023 (doi:10.1038/s41467-023-39022-2) through the FLAb antibody collection.

All variants were tested on one target, the spike HR2 peptide PDVDLGDISGINAS (SARS-CoV-2).

The variants keep the light chain, the linker and the frameworks of Ab-14 (scFv order VH, the linker GGGGSGGGGSGGGGS, VL).
VH: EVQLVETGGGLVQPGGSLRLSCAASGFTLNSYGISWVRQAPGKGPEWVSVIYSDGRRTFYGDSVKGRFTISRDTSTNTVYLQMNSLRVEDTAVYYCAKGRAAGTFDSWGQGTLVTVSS
VL: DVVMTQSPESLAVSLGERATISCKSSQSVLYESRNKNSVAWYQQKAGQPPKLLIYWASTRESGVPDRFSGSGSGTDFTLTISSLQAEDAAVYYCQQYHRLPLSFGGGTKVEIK

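Phage display of a naive human antibody library on the peptide gave the parent. Designed CDR sequences, proposed from the first random library and measured here. Their group label is 14H_En_Gen (En: ensemble of fine-tuned language models; Gen: genetic algorithm). The scFvs were displayed on barcoded MATa yeast, the peptide on MATalpha yeast. Mating (16 h, 30 °C) was followed by selection of diploids and sequencing of their barcodes. Read counts were normalised to the haploid input and turned into Kd by a linear fit to BCL2-family pairs of known affinity, for each replicate. There are six technical replicates.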

Each variant is given by its three heavy chain CDRs, as the data file delimits them; those of the parent are GFTLNSYGIS, VIYSDGRRTFYGDSVK, GRAAGTFDS.
Affinities are written as log10 Kd with Kd in nM; a lower number is a better binder.
A pair that was not seen in that replicate is written "ND"; this usually means weak binding, but a binder can also be missed.

For GFDLNEYGIS / VIYADGMRTAYSDSVK / GNVAGTFDI, the assay gave -0.65, -1.06, -0.94, -0.97, -0.82, -0.97 (controls 1 of 18).
For GFDLDEYGIS / VIYADGKRKAYADSVK / GNVAGTFDL, the assay gave -0.44, -0.66, -0.74, -0.78, -0.56, -0.53 (controls 0 of 18).
For GFDLNEYGIS / VIYADGVRTVYADSVK / GNNAGTFDI, the assay gave -0.07, -1.02, -0.90, -1.27, -0.98, -0.80 (controls 0 of 18).
For GFDLNEYGIS / VIYADGMRTAYSDSVK / GNQAGTFDM, the assay gave 0.42, -0.17, 0.01, -0.56, -0.25, 0.45 (controls 0 of 18).
For GFDLNEYGIS / VIYADGVRTAYIDSVK / GQNAGTFDI, the assay gave -0.71, -0.53, -0.55, -0.62, -0.66, -0.65 (controls 1 of 18).
For GFDLDEYGIS / VIYADGQRTVYADSVK / GNVAGTFDV, the assay gave 0.22, 1.02, 0.09, 0.43, 0.40, 0.11 (controls 0 of 18).
For GFDLDEYGIS / VIYADGMRTAYSDNVK / GETAGTFDQ, the assay gave 0.17, ND, ND, ND, ND, ND (controls 0 of 18).
For GFDLNEYGIS / VIYADGMRTAYADDVK / GENAGTFDL, the assay gave 0.24, -0.08, -0.27, -0.34, 0.03, 0.13 (controls 0 of 18).
For GFDLNEYGIS / VIYADGSRTAYADNVK / GNVAGTFDV, the assay gave -0.69, -0.84, -0.85, -0.87, -0.84, -0.42 (controls 0 of 18).
For GFDLDEYGIS / VIYADGSRTAYADSVK / GTNAGTFDI, the assay gave 0.50, 0.18, 0.83, 0.44, 0.05, 0.30 (controls 0 of 18).
For GFDLNEYGIS / VIYADGMRTAYVDSVK / GNQAGTFDT, the assay gave -0.62, -0.70, -0.55, -0.73, -0.68, -0.34 (controls 0 of 18).
For GFDLDEYGIS / VIYADGKRTFYTDSVK / GNVAGTFDV, the assay gave -0.37, -0.79, -0.16, -0.60, -0.35, -0.51 (controls 0 of 18).
For GFDLDEYGIS / VIYADGVRTAYTDSVK / GEVAGTFDL, the assay gave 0.04, 0.06, -0.79, -0.38, -0.42, -0.08 (controls 0 of 18).
For GFDLDEYGIS / VIYADGQRTAYTDSVK / GNVAGTFDT, the assay gave -0.24, -0.61, -0.48, -0.40, -0.21, -0.29 (controls 0 of 18).
For GFDLNEYGIS / VIYADGMRKVYADSVK / GNVAGTFDI, the assay gave -0.17, -0.62, -0.42, -0.40, -0.16, -0.47 (controls 0 of 18).
For GFDLNEYGIS / VIYADGMRTAYADQVK / GENAGTFDV, the assay gave 0.19, -0.19, -0.28, -0.46, -0.47, 0.21 (controls 0 of 18).
For GFDLNEYGIS / VIYADGQRKAYADSVK / GENAGTFDV, the assay gave -0.58, -0.52, -0.73, -0.66, -0.61, -0.43 (controls 0 of 18).
For GFDLNEYGIS / VIYADGMRTAYVDSVK / GEVAGTFDV, the assay gave -0.70, -0.89, -0.81, -0.70, -0.75, -0.63 (controls 0 of 18).
For GFDLDEYGIS / VIYADGRRTYYADSVK / GNQAGTFDV, the assay gave -0.11, -0.35, -0.45, -0.71, -0.90, 0.04 (controls 0 of 18).
For GFDLNEYGIS / VIYADGRRTYYADSVK / GENAGTFDL, the assay gave -0.27, -0.29, -0.60, -0.45, -0.41, -0.32 (controls 0 of 18).
For GFDLNEYGIS / VIYADGSRTAYADDVK / GNVAGTFDV, the assay gave -0.42, -0.59, ND, 0.37, -0.52, -0.22 (controls 0 of 18).
For GFDLNEYGIS / VIYADGKRTAYSDSVK / GEVAGTFDM, the assay gave -0.44, -0.47, -0.65, -0.51, -0.78, -0.09 (controls 0 of 18).
For GFDLNEYGIS / VIYADGRRTAYADSVK / GNEAGTFDV, the assay gave 0.47, -0.71, -0.84, -0.88, -0.66, -0.45 (controls 0 of 18).
For GFDLDEYGIS / VIYADGMRTAYSDSVK / GNEAGTFDQ, the assay gave -0.10, -0.83, -0.44, -0.71, -0.49, -0.13 (controls 0 of 18).
For GFDLDEYGIS / VIYADGSRTAYSDSVK / GNNAGTFDV, the assay gave -0.18, -0.72, 0.05, -0.71, -0.24, -0.48 (controls 0 of 18).
For GFDLNEYGIS / VIYADGHRTAYADSVK / GNVAGTFDV, the assay gave -0.69, -0.58, -0.69, -0.91, -0.77, -0.56 (controls 0 of 18).
For GFDLDEYGIS / VIYADGRRTAYADNVK / GNQAGTFDV, the assay gave -0.33, -0.66, -1.61, -1.61, -1.59, -0.51 (controls 0 of 18).
For GFDLNEYGIS / VIYADGMRSYYADSVK / GENAGTFDM, the assay gave 0.72, -0.16, -0.61, -1.12, -0.78, -0.96 (controls 0 of 18).
For GFDLNEYGIS / VIYADGKRTAYSDSVK / GNVAGTFDT, the assay gave 0.23, -0.28, 0.14, -0.11, -0.80, -0.04 (controls 1 of 18).
For GFDLNEYGIS / VIYADGLRTAYADSVK / GEVAGTFDV, the assay gave ND, ND, ND, ND, ND, ND (controls 0 of 18).
For GFDLNEYGIS / VIYADGVRTAYADKVK / GNVAGTFDM, the assay gave -0.59, -0.34, -0.87, -0.54, -0.94, 0.09 (controls 0 of 18).
For GFDLEEYGIS / VIYADGVRTAYADSVK / GENAGTFDV, the assay gave 0.85, -0.09, -0.25, -0.06, -0.45, -0.09 (controls 0 of 18).
For GFDLNEYGIS / VIYADGQRTFYADSVK / GNVAGTFDT, the assay gave -0.34, -0.39, -0.23, -0.83, -0.44, -0.45 (controls 0 of 18).
For GFDLDEYGIS / VIYADGMRTAYADSVK / GNQAGTFDM, the assay gave 0.35, -0.39, -0.55, -0.44, -0.20, -0.36 (controls 0 of 18).
For GFDLNEYGIS / VIYADGVRTAYAESVK / GNVAGTFDV, the assay gave -0.56, -0.29, -0.69, -0.63, -0.68, -0.41 (controls 0 of 18).
For GFDLNEYGIS / VIYADGRRTAYAESVK / GNVAGTFDV, the assay gave 0.06, -0.20, -0.23, -0.22, -0.37, -0.07 (controls 0 of 18).
For GFDLDEYGIS / VIYADGVRTAYADSVK / GNVAGTFDT, the assay gave -0.05, ND, -0.04, -0.04, -0.79, -0.77 (controls 0 of 18).
For GFDLNEYGIS / VIYADGMRTAYADNVK / GENAGTFDV, the assay gave -0.72, -0.78, -1.20, -0.68, -0.59, -0.43 (controls 0 of 18).
For GFDLNEYGIS / VIYADGMRTAYADKVK / GTNAGTFDV, the assay gave -0.71, -0.75, -0.66, -0.88, -1.01, -0.49 (controls 0 of 18).

The range of this assay differs from that of the first round, and the authors advise against merging the two.
Nonspecific signal, from three strains lacking the peptide, appeared in 1% of pairings of all heavy chain designs, centred on 2.08 (5% of these signals below 0.84); values are not corrected for it. Also given: how often the same scFv was detected with the empty control strains.
In the paper, a design with two or fewer of six values counts as a poor binder.